The values that follow come from PubChem BioAssay AID1508624 (National Center for Advancing Translational Sciences (NCATS), 2021).

Only a part is listed here, and it is no random draw. Records with an inconclusive call do not appear. The source made the active and inactive calls. Calls follow the shape of the dose curve; as a rule, active = well fitted activation curve with a large enough effect; inconclusive = small, poorly fitted or top-dose-only effect, or another doubt; inactive = no such curve, though single readings can be large or run the other way.

The assay can be described thus: Primary qHTS for Identification of Small Molecule Activators of Huntingtin-Antisense Promoter Activity. Also: nearly all actives have a fitted effect of over 55% in size. As to conditions: HEK293 HTT-AS promoter firefly luciferase reporter, 24 h, percent change from vehicle, -100% = no light; at 57.5 µM (top of the series) unless noted. The text has this:
Assay Provider: Russell L. Margolis M.D.
Department Neurology, Johns Hopkins University School of Medicine, Baltimore, MD
Huntington's Disease (HD) is a neurodegenerative disorder caused by a CAG repeat expansion in exon 1 of huntingtin (HTT). While there are currently no disease-modifying treatments for HD, recent efforts have focused on development of nucleotide-based therapeutics to lower HTT expression. As an alternative to siRNA or oligonucleotide methods, we hypothesized that suppression of HTT expression might be accomplished by small molecules that either (1) directly decrease HTT expression by suppressing HTT promoter activity or (2) indirectly decrease HTT expression by increasing the promoter activity of HTT-AS, the gene antisense to HTT that appears to inhibit expression of HTT.
We developed and employed a high throughput screen for modifiers of HTT and HTT-AS promoter activity using luminescent reporter HEK293 cells; of the 52,041 compounds tested, we identified 898 replicable hits. We used a rigorous stepwise approach to assess compound toxicity and the capacity of the compounds to specifically lower huntingtin protein in 5 different cell lines, including HEK293 cells, HD lymphoblastoid cells, mouse primary neurons, HD iPSCs differentiated into cortical-like neurons, and HD hESCs. We found no compounds which were able to lower huntingtin without lowering cell viability in all assays, though the potential efficacy of a few compounds at non-toxic doses could not be excluded.
SEQUENCE No. (1, 2, 3, etc.); […] (e.g., Cells, Incubation, Reagent, etc.); VALUE and DESCRIPTION.
1; Reagent; 4 uL; 2,500 Hek293 luciferase reporter cells per wells
3; Compound; 23 nL; Control inhibitor / compound library
5; Reagent; 2.5 uL; Firefly Luc reagent; Dual-Glo Luciferase Reporter Assay System (Promega)
6; Time; 10 min; room temperature incubation
7; Detection; Luminescence; FLuc
NOTES (numbers refer to sequence above)
1; High-throughput screening, measuring luminescence from a Hek293 luciferase reporter, was performed in 1,536 well white-walled tissue-culture treated plates. 2,500 cells were plated in 4 µL of Opti-MEM per well using a Multidrop Combi Reagent Dispenser (ThermoFisher).
2; Assay plates were cultured for 24 hours.
3; Control inhibitor (PTC124; final concentration of 50 uM) and compound library (at final concentrations of 460 nM - 57.5 uM) were added to the assay plate using the Kalypsis Pintool Robotic System equipped with 1536 pinheads.
4; Cells were then incubated for 24 hours at 37 degrees C prior to luminescence measurements.
5; In all cases, luminescence was measured using the Dual-Glo Luciferase Reporter Assay System (Promega) following the manufacturer's instructions.
6; Room temperature incubation.
7; Luminescence signal was obtained using the PerkinElmer ViewLux plate reader. Results were normalized to vehicle control (0% activity) and zero RLU (-100% activity).
With `OCCSCCO`, the activity change, positive = activation is inactive: 3.87%. With `CC1=C2[N-][C@@](C)([C@@H]3N=C(C(C)=C4N=C(C=C5N=C1[C@@](C)(CC(N)=O)[C@H]5CCC(N)=O)C(C)(C)[C@H]4CCC(N)=O)[C@](C)(CCC(=O)NC[C@@H](C)OP(=O)([O-])O[C@H]1[C@@H](O)[C@@H](n4cnc5cc(C)c(C)cc54)O[C@H]1CO)[C@H]3CC(N)=O)[C@@](C)(CC(N)=O)[C@@H]2CCC(N)=O.[C-]#N.[Co+3]`, the activity change, positive = activation is inactive: -9.15% [at 25.1 µM]. For `CCOP(=O)(CC)Oc1ccc([N+](=O)[O-])cc1` (stereo unspecified), the activity change, positive = activation was inactive: -37.5%. With `Cc1cccc([N+](=O)[O-])c1[N+](=O)[O-]`, the activity change, positive = activation is inactive: -11.2% [at 116 µM].

For `C/C1=C2N=C(/C=C3N=C(/C(C)=C4\[N-][C@@](C)([C@@H]5N=C1[C@](C)(CCC(=O)NC[C@@H](C)OP(=O)([O-])O[C@H]1[C@@H](O)[C@@H](n6cnc7cc(C)c(C)cc76)O[C@@H]1CO)[C@H]5CC(N)=O)[C@@](C)(CC(N)=O)[C@@H]4CCC(N)=O)[C@@](C)(CC(N)=O)[C@@H]\3CCC(N)=O)C(C)(C)[C@@H]/2CCC(N)=O.[C-]#N.[Co+3]`, the activity change, positive = activation was inactive: -29.8%. As for `O=[N+]([O-])c1cccc([N+](=O)[O-])c1`, the figure is inactive: -13.7% [at 116 µM].
